Article PMC2409616 (British Journal of Cancer, 2004)

Assays:
[1] = tested on: SiHa-NTR^puro MCLs; details: parent prodrug 100 μM in donor compartment
[2] = tested on: AA8; experiment: Cytotoxicity IC50 assay, 4 h drug exposure, sulphorhodamine B; details: read-out: IC50 following 4 h drug exposure, mean±s.e.m.
[3] = tested on: SiHa; experiment: as above; details: read-out: IC50 following 4 h drug exposure, mean±s.e.m.
[4] = tested on: UV4; experiment: as above
[5] = tested on: V79^puro; experiment: as above; details: read-out: IC50 following 4 h drug exposure, mean±s.e.m.
[6] = tested on: WiDr; experiment: as above; details: read-out: IC50 following 4 h drug exposure, mean±s.e.m.
[7] = tested on: UV4 cells; experiment: Bioassay of HPLC fractions of extracellular medium against UV4 cells; details: extracellular medium of V79-NTR^puro suspensions with SN 23862

NC(=O)c1cc(N(CCCl)CCCl)c([N+](=O)[O-])cc1N
Initial flux of metabolite [1]: 0.5 µM/h | IC50 [2]: 8.8 µM | IC50 [3]: 2500 nM | AA8/UV4 intra-experiment IC50 ratio ([4]; 4 h drug exposure): 40±4 | IC50 ([4]; read-out: IC50 following 4 h drug exposure, UV4 (repair defective), mean±s.e.m.): 230 nM | IC50 [5]: 3.94 µM | IC50 [6]: 2750 nM | Bioactivity of HPLC fraction against UV4 cells [7]: only cytotoxic metabolite detected
